These results are taken from PMC9620001 (Journal of Medicinal Chemistry, 2022).

By UniProt entry, the sequences of proteins in these tests, tags left out. Residues count along the entry.
UniProt P03952, 20-390 partner limits assumed: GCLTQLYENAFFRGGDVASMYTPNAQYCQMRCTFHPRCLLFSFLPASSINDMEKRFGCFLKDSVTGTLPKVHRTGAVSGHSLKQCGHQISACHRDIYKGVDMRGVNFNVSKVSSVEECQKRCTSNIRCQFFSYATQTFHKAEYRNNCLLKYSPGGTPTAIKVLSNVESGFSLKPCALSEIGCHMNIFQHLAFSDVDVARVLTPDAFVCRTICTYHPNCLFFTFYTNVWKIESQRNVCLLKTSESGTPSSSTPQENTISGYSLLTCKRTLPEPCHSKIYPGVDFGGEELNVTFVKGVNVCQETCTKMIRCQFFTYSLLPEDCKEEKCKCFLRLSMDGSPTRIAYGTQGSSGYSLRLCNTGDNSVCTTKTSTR
UniProt P03952, 391-638 limits assumed: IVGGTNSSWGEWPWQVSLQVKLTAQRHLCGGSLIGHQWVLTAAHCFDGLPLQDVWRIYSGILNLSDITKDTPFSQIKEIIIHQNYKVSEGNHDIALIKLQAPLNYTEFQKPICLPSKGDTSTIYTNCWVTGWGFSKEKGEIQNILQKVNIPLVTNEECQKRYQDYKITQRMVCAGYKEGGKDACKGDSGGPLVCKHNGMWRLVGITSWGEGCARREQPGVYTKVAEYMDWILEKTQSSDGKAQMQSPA

Where two headings read alike, the source gives them in different places.

The target in the assay is Human PKa (Homo sapiens, UniProt P03952). Format: biochemical.

The molecule `COc1ccc(F)c(CNC(=O)c2cnn(Cc3ccc(Cn4ccccc4=O)cc3)c2)c1F` [Compound 13a, COc1ccc(c(c1F)CNC(=O)c1cnn(c1)Cc1ccc(cc1)CN1C=CC=CC1=O)F] gave an LLE (lipophilic ligand efficiency) of 6.1. Same read-out and setting: next, `COc1ccc(F)c(CNC(=O)c2cn(Cc3ccc(Cn4ccccc4=O)cc3)nc2CN(C)C)c1F` [Compound 13c, COc1ccc(c(c1F)CNC(=O)c1cn(nc1CN(C)C)Cc1ccc(cc1)CN1C=CC=CC1=O)F]: 5.8; `COCc1nn(Cc2ccc(Cn3ccccc3=O)cc2)cc1C(=O)NCc1cccc(OC)c1F` [Compound 13d, COCc1nn(cc1C(=O)NCc1cccc(c1F)OC)Cc1ccc(cc1)CN1C=CC=CC1=O]: 5.2. `COc1cccc(CNC(=O)c2cn(Cc3ccc(Cn4ccccc4=O)cc3)nc2N(C)C)c1F` [Compound 13e, COc1cccc(c1F)CNC(=O)c1cn(nc1N(C)C)Cc1ccc(cc1)CN1C=CC=CC1=O]: the LLE was found to be 4.4. With `COCc1nn(Cc2ccc(Cn3ccccc3=O)cc2)cc1C(=O)NCc1cccc(O)c1F` [Compound 13g, COCc1nn(cc1C(=O)NCc1cccc(c1F)O)Cc1ccc(cc1)CN1C=CC=CC1=O], the LLE was determined as 4.2.

On to `COCc1nn(Cc2ccc(Cn3ccccc3=O)cc2)cc1C(=O)NCc1c(C#N)ccc(OC)c1F` [Compound 13k, COCc1nn(cc1C(=O)NCc1c(c(ccc1C#N)OC)F)Cc1ccc(cc1)CN1C=CC=CC1=O], for which, where the note is “lipophilic ligand efficiency”, the LLE was found to be 6.9. Regarding `COCc1nn(Cc2ccc(Cn3ccccc3=O)cc2)cc1C(=O)NCc1cc(OC)ccc1F` [Compound 13l, COCc1nn(cc1C(=O)NCc1cc(ccc1F)OC)Cc1ccc(cc1)CN1C=CC=CC1=O], the LLE was 5.1.
